Source: ChEMBL document CHEMBL5338725, “New Glucosamine-Based TLR4 Agonists: Design, Synthesis, Mechanism of Action, and In Vivo Activity as Vaccine Adjuvants” (J Med Chem, 2023)

Sequences of proteins named here, by UniProt entry; tags and fusion partners are left off.
UniProt O00206, whole entry: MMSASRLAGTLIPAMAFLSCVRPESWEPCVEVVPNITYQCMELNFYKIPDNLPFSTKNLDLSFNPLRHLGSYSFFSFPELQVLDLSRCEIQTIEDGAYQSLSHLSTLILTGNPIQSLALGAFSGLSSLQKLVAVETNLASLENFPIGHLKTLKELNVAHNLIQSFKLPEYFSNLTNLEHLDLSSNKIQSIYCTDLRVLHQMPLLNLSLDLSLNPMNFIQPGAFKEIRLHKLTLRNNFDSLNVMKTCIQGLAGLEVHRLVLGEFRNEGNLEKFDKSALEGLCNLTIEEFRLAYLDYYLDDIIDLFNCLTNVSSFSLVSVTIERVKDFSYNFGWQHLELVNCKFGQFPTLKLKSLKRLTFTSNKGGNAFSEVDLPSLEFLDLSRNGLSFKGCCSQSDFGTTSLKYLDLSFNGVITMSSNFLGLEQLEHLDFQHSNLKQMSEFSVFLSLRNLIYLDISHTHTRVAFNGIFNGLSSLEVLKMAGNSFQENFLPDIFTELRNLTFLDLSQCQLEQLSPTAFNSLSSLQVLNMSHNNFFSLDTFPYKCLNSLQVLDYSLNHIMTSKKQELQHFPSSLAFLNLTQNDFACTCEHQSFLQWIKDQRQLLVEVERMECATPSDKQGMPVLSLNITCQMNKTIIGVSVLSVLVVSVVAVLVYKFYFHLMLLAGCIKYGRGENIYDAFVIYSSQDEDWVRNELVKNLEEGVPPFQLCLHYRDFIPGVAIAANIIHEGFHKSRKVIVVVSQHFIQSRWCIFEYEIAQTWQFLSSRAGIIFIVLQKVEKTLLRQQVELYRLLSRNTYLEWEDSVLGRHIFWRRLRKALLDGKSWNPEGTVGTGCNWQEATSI

Key:
Type in all cases: cell-based
[1] = target: Toll-like receptor 4 (Homo sapiens) (UniProt O00206); test: Activation of TLR4 in PMA-differentiated human THP1-Xblue cells assessed as induction of TNFalpha release at 25 uM incubated for 6 hrs by ELISA method; settings: filed as activator
[2] = target: Toll-like receptor 4 (Homo sapiens) (UniProt O00206); test: Agonist activity at human TLR4 in HEK-Blue hTLR4 cells at 0.1 to 25 uM incubated for 18 hrs by SEAP reporter gene based Quanti-blue assay; settings: filed as agonist, dose 0.1-25 µM
[3] = target: Toll-like receptor 4 (Homo sapiens) (UniProt O00206); test: Agonist activity at TLR4 in human PBMC assessed as induction of TNF production incubated for 6 hrs by ELISA method; settings: filed as agonist, dose 10-25 µM
[4] = target: Toll-like receptor 4 (Homo sapiens) (UniProt O00206); test: Agonist activity at TLR4 in human PBMC assessed as induction of IL-1beta production incubated for 6 hrs by ELISA method; settings: filed as agonist, dose 10-25 µM
[5] = target: Toll-like receptor 4 (Homo sapiens) (UniProt O00206); test: Activation of TLR4 in PMA-differentiated human THP1-Xblue cells assessed as induction of IL-6 secretion at 0.1 to 25 uM by incubated for 6 hrs ELISA method; settings: dose 0.1-25 µM

Activity [1]: Active | Activity [2]: Active | Activity [3]: Dose-Dependent Effect | Activity [4]: Dose-Dependent Effect | Activity [5]: inactive
Compound: CCCCCCCCCC(=O)N[C@H]1[C@H](OC(=O)CCCCCCCCC)O[C@H](CO)[C@@H](OP(=O)(O)O)[C@@H]1OC(=O)CCCCCCCCC

Activity calls are given as the source filed them. The calls are words filed in the database; no cut-off is given here.
